According to paper PMC12367838, “Relevance of kinetic interactions and co-formulants for plant protection product liver toxicity in vitro” (Archives of Toxicology, 2025):

Legend:
HepaRG cells [1] = experiment: Total RNA sequencing, differential gene expression; details: 24 h, vs solvent control
HepaRG cells [2] = experiment: AdipoRed triglyceride accumulation assay; format: cell-based, human; details: for Relative triglyceride accumulation: 72 h, related to medium control
Description: Different elements of the liver steatosis AOP were evaluated in this study. Transcriptomics was employed as a tool to investigate the expression of liver steatosis-related genes that occur either as MIE (genes related to NR activation) or molecular and cellular KEs. In addition to gene expression, lipid accumulation in HepaRG cells was conducted to cover molecular KEs. Considering that upstream MIEs occur earlier than subsequent downstream KEs (Alarcan et al. [2021]), we applied different time points (24 h for transcriptomics and 72 h for lipid accumulation) to reflect the temporal relationships between biological events.
HepaRG cells were treated in 96-well plates for 72 h with eight different concentrations of the above-mentioned test compounds, with the highest concentration of each being the highest non-cytotoxic concentration. The synthetic LXR and FXR agonist, T0901317, was used as a positive control at a concentration of 10 µM. After the 72-h incubation, cells were washed with 200 µL phosphate-buffered saline (PBS), and then 200 µL PBS containing 5 µg/mL Hoechst 33,342 (Thermo Fisher Scientific; Waltham, Massachusetts, USA) was added to each well. Thereafter, 5 µL of the AdipoRed reagent was added to each well, and the plates were incubated at 37 °C for 10 min. Subsequently, the fluorescence of AdipoRed was measured at λexc = 485 nm/λemi = 572 nm, and Hoechst 33,342 was measured at λexc = 350 nm/λemi = 451 nm on the Infinite M200 PRO plate reader (Tecan; Männedorf, Switzerland). AdipoRed signals were normalized to Hoechst 33,342 signals to compensate for variations in cell number. Relative triglyceride levels were referred to untreated cells. Each concentration was measured in three technical replicates. Three independent biological replicates were performed (n = 3) and means as well as SD were calculated.
A linear mixed-effects ANOVA (α = 0.05) described by Pinheiro and Bates ([2000]) followed by a post-hoc Dunnett test for multiple comparisons of treatment groups versus the control was used for statistical analysis of data from cytotoxicity assay, AdipoRed assay, CYP450 inhibition assay as well as mixture effects. R studio (ver. 4.4.1) was used to determine the effective concentration at relative triglyceride induction fold of 1.5 for each test compound.

[3] = high sub-cytotoxic concentration
[4] = low sub-cytotoxic concentration

CC1COC(Cn2cncn2)(c2ccc(Oc3ccc(Cl)cc3)cc2Cl)O1 (stereo not drawn) [DIF, difenoconazole]
ACOX1 Fold change (HepaRG cells [1]; [3]): 0.9829 | AHR Fold change (HepaRG cells [1]; [3]): 1.458 | CD36 Fold change (HepaRG cells [1]; [3]): 0.6936 | CYP1A1 log2FoldChange (HepaRG cells [1]; [3]): 2.823 | CYP1A2 Fold change (HepaRG cells [1]; [3]): ≈ 0.2 and 0.214 | CYP1A2 log2FoldChange (HepaRG cells [1]; [3]): -2.225 | CYP2B6 Fold change (HepaRG cells [1]; [3]): 1.562 | CYP2B6 log2FoldChange (HepaRG cells [1]; [3]): 0.6435 | CYP2C9 Fold change (HepaRG cells [1]; [3]): ≈ 0.2 and 0.2217 | CYP2C9 log2FoldChange (HepaRG cells [1]; [3]): -2.173 | CYP2C19 Fold change (HepaRG cells [1]; [3]): ≈ 0.2 and 0.2778 | CYP2C19 log2FoldChange (HepaRG cells [1]; [3]): -1.848 | CYP2D6 Fold change (HepaRG cells [1]; [3]): 1.334 | CYP2D6 log2FoldChange (HepaRG cells [1]; [3]): 0.4154 | CYP3A4 Fold change (HepaRG cells [1]; [3]): 0.8345 | CYP3A4 log2FoldChange (HepaRG cells [1]; [3]): -0.2611 | FASN Fold change (HepaRG cells [1]; [3]): 0.7942 | INSIG1 Fold change (HepaRG cells [1]; [3]): ≈ 0.48 and 0.4832 | MLXIPL Fold change (HepaRG cells [1]; [3]): 1.187 | NR1H2 Fold change (HepaRG cells [1]; [3]): 1.8177 | NR1H4 Fold change (HepaRG cells [1]; [3]): 0.7549 | NR1I2 Fold change (HepaRG cells [1]; [3]): 1.237 | NR1I3 Fold change (HepaRG cells [1]; [3]): ≈ 0.37 and 0.3714 | NR3C1 Fold change (HepaRG cells [1]; [3]): 1.332 | PPARA Fold change (HepaRG cells [1]; [3]): 0.8085 | PPARG Fold change (HepaRG cells [1]; [3]): ≈ 5.3 and 5.354 | RARA Fold change (HepaRG cells [1]; [3]): 1.363 | RARB Fold change (HepaRG cells [1]; [3]): 2.059 | RARG Fold change (HepaRG cells [1]; [3]): 1.079 | SCD Fold change (HepaRG cells [1]; [3]): 0.5986 | SREBF1 Fold change (HepaRG cells [1]; [3]): ≈ 0.50 and 0.4955 | ACOX1 Fold change (HepaRG cells [1]; [4]): 1.1295 | AHR Fold change (HepaRG cells [1]; [4]): 0.9145 | CD36 Fold change (HepaRG cells [1]; [4]): 1.838 | CYP1A1 Fold change (HepaRG cells [1]; [4]): 2.608 | CYP1A1 log2FoldChange (HepaRG cells [1]; [4]): 1.383 | CYP1A2 Fold change (HepaRG cells [1]; [4]): 1.311 | CYP1A2 log2FoldChange (HepaRG cells [1]; [4]): 0.3911 | CYP2B6 Fold change (HepaRG cells [1]; [4]): 1.21 | CYP2B6 log2FoldChange (HepaRG cells [1]; [4]): 0.2748 | CYP2C9 Fold change (HepaRG cells [1]; [4]): 0.7593 | CYP2C9 log2FoldChange (HepaRG cells [1]; [4]): -0.3972 | CYP2C19 Fold change (HepaRG cells [1]; [4]): 1.047 | CYP2C19 log2FoldChange (HepaRG cells [1]; [4]): 0.06625 | CYP2D6 Fold change (HepaRG cells [1]; [4]): 0.8535 | CYP2D6 log2FoldChange (HepaRG cells [1]; [4]): -0.2285 | CYP3A4 Fold change (HepaRG cells [1]; [4]): 1.931 | CYP3A4 log2FoldChange (HepaRG cells [1]; [4]): 0.9497 | FASN Fold change (HepaRG cells [1]; [4]): 1.357 | INSIG1 Fold change (HepaRG cells [1]; [4]): 2.034 | MLXIPL Fold change (HepaRG cells [1]; [4]): 1.109 | NR1H2 Fold change (HepaRG cells [1]; [4]): 1.133 | NR1H4 Fold change (HepaRG cells [1]; [4]): 1.108 | NR1I2 Fold change (HepaRG cells [1]; [4]): 1.316 | NR1I3 Fold change (HepaRG cells [1]; [4]): 0.7655 | NR3C1 Fold change (HepaRG cells [1]; [4]): 0.8639 | PPARA Fold change (HepaRG cells [1]; [4]): 1.056 | PPARG Fold change (HepaRG cells [1]; [4]): 1.185 | RARA Fold change (HepaRG cells [1]; [4]): 1.086 | RARB Fold change (HepaRG cells [1]; [4]): 1.283 | RARG Fold change (HepaRG cells [1]; [4]): 1.052 | SCD Fold change (HepaRG cells [1]; [4]): 1.481 | SREBF1 Fold change (HepaRG cells [1]; [4]): 0.6957 | Relative triglyceride accumulation (HepaRG cells [2]; 1.00 mg/L): 1.0 | Relative triglyceride accumulation (HepaRG cells [2]; 1.30 mg/L): 1.0 | Relative triglyceride accumulation (HepaRG cells [2]; 1.60 mg/L): 1.0 | Relative triglyceride accumulation (HepaRG cells [2]; 2.00 mg/L): 1.0 | Relative triglyceride accumulation (HepaRG cells [2]; 2.50 mg/L): 1.1 | Relative triglyceride accumulation (HepaRG cells [2]; 3.10 mg/L): 1.2 | Relative triglyceride accumulation (HepaRG cells [2]; 3.90 mg/L): 1.4 | Relative triglyceride accumulation (HepaRG cells [2]; 4.90 mg/L): 1.7 | EC1.5-fold (effective concentration at 1.5 relative triglyceride induction fold) (HepaRG cells [2]; HepaRG cells, 72-h incubation): 4.21 mg/L

Where “and” joins values, the source holds several entries; their conditions need not be identical. Identical values can stand only once.
